Measurements: patent publication US20150283269A1, “RECONSTITUTED HUMAN IMMUNE SYSTEM IN A PATIENT DERIVED XENOGRAFT MOUSE MODEL” (Crown Bioscience Inc., priority 2014, published 2015)

Assays:
[1] = test system: non-small cell lung cancer PDX LU0387; assay: Tumor growth of non-small cell lung cancer PDX in mice treated with Cetuximab or saline; format: in vivo, mouse
Description: The HuMice™ mouse model is also useful when engrafted with a human tumor cells, tissue or an infectious disease/organism. Using a previously established non-small cell lung cancer PDX model (HuPrime® mouse model, Crown Bioscience) for non-small cell lung cancer, LU2503 (Yang, M., et al., 2013 Int. J. Cancer, E74-E84, September 5. doi: 10.1002/ijc.27813. [Epub ahead of print], FIG. 3) and LU0387 (FIGS. 4A and 4B) were separately engrafted into the CD34^+ UCB reconstituted NOD/SCID mice.
Further preliminary evaluations were also undertaken to evaluate the new PDX model (HuPrime™ 3.0 mouse model) by treating the new human immunocompetent PDX mice with antibody therapeutics. […] Further work to assess the role of the reconstituted immune system's function in concert with a biologic drug effect was also performed. Standard NOD/SCID mice, PDX for NSCLC were treated with either saline or Cetuximab. […]
(§1) Patient tumor fragments of NSCLC or gastric tumor tissue derived from diseased seed mice were engrafted 2.5 weeks after the CD34+ cell inoculation in order to create patient derived xenograft (PDX) models. […] The treatments were started when mean tumor size reached approximately 100-150 mm^3 The transplanted animals were monitored by weekly bleed and FACS analysis for hCD45^+ cells in peripheral blood.

GA 0055 tumor = assay: Anti-tumor activity against GA 0055 gastric tumor PDX in HuMice and NOD/SCID mice; format: in vivo, mouse; conditions: for tumor growth: with vs without treatment
Description: In yet another example of the utility of the HuPrime™ 3.0 mouse model (PDX human immunocompetent NOD/SCID mouse with CD34^+ hSC+PDX gastric tumor), patient cells derived from a human patient diagnosed with over-expressing gastric cancer, GA 0055, were engrafted into HuPrime™ 3.0 mice.
The HuPrime™ 3.0 mice engrafted with GA 0055 were divided into six groups, four mice each. Three groups were engrafted with UCB human stem cells and three groups were not. Preliminary data (not shown) indicated slightly slower tumor growth of GA 0055 in the UCB groups verses the three groups without UCB engraftment. The groups were then evaluated for treatment response to 6 mg/kg body weight of Herceptin or 5 mg/kg body weight of Cisplatin. FIG. 6A provides a hematoxylin and eosin (H&E) stained cross-section of GA 0055 tumor cross-sections (40×10) treated with Cisplatin indicates Cisplatin is effective against GA 00555 while FIG. 6B is an immunohistorchemical stained section of GA 0055 treated with HER2. […] This is yet another example of the role of human immunity in providing the ADCC mechanism to facilitate treatment with monoclonal antibody therapeutics.
To further illustrate the ADCC mechanism and the response of GA 0055 to treatment HuMice™ mice (reconstituted human immunocompetent) were engrafted with GA 0055 and then treated with or without Herceptin. Likewise, NOD/SCID (immunodeficient) mice were similarly engrafted and treated with Herceptin.
as §1, with “models. Solid tumor sample fragments from seed mice inoculated with selected primary human lung or gastric cancer tissues were harvested and used for inoculation into mice.” for “models.”, “blood. […]” for “blood.”

Substance	anti-tumor effect (tumor growth) ([1]; HuPrime 3.0 mice (HuMice mouse + PDX for NSCLC), human immunity present, vs Saline, FIG. 4A, initial data)	efficacy (tumor growth) ([1]; standard NOD/SCID mice, PDX for NSCLC, no reconstituted human immune system, vs saline, FIG. 4B)	treatment response, stained GA 0055 tumor section (GA 0055 tumor; 6 mg/kg Herceptin, in the absence of human immunity, FIG. 6B)	tumor growth (GA 0055 tumor; HuMice mice (reconstituted human immunocompetent) engrafted with GA 0055, FIG. 7A, 7C)	tumor growth (GA 0055 tumor; NOD/SCID (immunodeficient) mice engrafted with GA 0055, FIG. 7B, 7D)
Cetuximab	slightly enhanced anti-tumor effect	virtually non-existent			
Herceptin			non-responsive	slowed tumor growth	no impact
